The results in this text go back to patent publication US20250059202A1, “CRYSTAL FORM OF FUSED RING DERIVATIVE, AND PREPARATION METHOD THEREFOR AND USE THEREOF” (SHANGHAI YINGLI PHARMACEUTICAL CO., LTD, priority 2022, published 2025).

Holding throughout (assay type): physicochemical
A short description of data set [1]: Competition experiments of crystal form I and crystal form IV in solvents at room temperature. Conditions: 7 days, each tested solvent.
The nature of data set [2]: Influencing factor stability test, high temperature (60±2° C.). Conditions: 10 days.
Data set [3] can be described thus: Influencing factor stability test, high humidity (25° C., RH92.5±5%). The settings on record: 10 days.
Data set [4] can be described thus: Influencing factor stability test, light (4500±500 Lux, 25° C.). The settings on record: 10 days.

The structures appear in SMILES notation.

Take `CC(C)(Cc1cc2c(-c3ccc(C#N)cc3)cncc2s1)C(=O)O` [crystal form I, 3-[4-(4-Cyanophenyl)thieno[2,3-c]pyridin-2-yl]-2,2-dimethylpropanoic acid]: in data set [1], the “relative stability of crystal forms” value is on record as “superior to that of the crystal form IV”. Also, the “change of the assessment indexes compared with the sample before treatment” value in data set [2], in data set [3] and in data set [4] was “no significant change” throughout.
